Several values for one entry are separate records, joined by “and”; a condition that tells them apart may be missing. Equal entries are not always repeated. The list shows a part of the results, in another mix than the full data. Results filed as inconclusive are left out. Where a structure was tested more than once in an assay, its records may differ in their call. Activity calls are given as the source filed them. Unless noted, calls come from the whole dose curve.

The chains behind the UniProt entries cited, without tags or fusion partners.
UniProt P14416, whole entry: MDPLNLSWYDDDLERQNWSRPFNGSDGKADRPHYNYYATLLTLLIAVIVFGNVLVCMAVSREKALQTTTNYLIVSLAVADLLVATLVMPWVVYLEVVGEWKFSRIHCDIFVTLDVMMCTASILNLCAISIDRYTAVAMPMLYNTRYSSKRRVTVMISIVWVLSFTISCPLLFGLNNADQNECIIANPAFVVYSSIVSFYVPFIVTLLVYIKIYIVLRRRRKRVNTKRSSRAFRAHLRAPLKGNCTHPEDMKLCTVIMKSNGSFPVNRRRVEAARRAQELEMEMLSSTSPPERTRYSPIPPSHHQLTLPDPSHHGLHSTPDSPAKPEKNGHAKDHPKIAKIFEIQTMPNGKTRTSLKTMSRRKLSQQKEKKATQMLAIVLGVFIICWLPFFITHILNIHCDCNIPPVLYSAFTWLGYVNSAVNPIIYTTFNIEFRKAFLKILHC

A short description of experiment [1]: Nuclear factor erythroid 2-related factor 2/antioxidant responsive element (Nrf2/ARE) small molecule agonists: qHTS cell viability counter screen in human keratinocytes (AID 1919968; active = well fitted cell-killing curve with a large enough effect in the repeat runs; note: nearly all actives have a fitted effect of over 55% in size). To be noted: KeratinoSens HaCaT ARE cells viability, CellTiter-Fluor, 24 h; at 92.4 µM (top of the series) unless noted. The method, boiled down:
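CellTiter-Fluor fluorescence, read 1 h after reagent, gave viability in the same wells as the ARE-luciferase assay. KeratinoSens cells (1,500/well) had 23 h compound exposure at 37 C/5% CO2 following 5 h plating.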
(In general: Quantitative high-throughput screening tests each substance at several concentrations.)

A short description of experiment [2]: G protein-coupled receptor (GPCR) small molecule agonists, calcium flux assay: HEK293 wild type cell line counter screen (AID 1920065). Note: potency is the fitted concentration of half-maximal effect. The procedure, abridged:
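Calcium flux counter screen: compound added in agonist mode at 15 concentrations in triplicate to dye-loaded parental HEK293 cells. Fluorescence (480/540) read kinetically for 3 min; ATP served as positive control.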
A general note: Calcium assays in cells follow changes in intracellular calcium, usually with a dye or a luminescent sensor.

The nature of experiment [3]: p53 small molecule agonists, cell-based qHTS assay with rat liver microsomes (AID 1963578). To be noted: HCT-116 p53RE-bla, beta-lactamase ratio, 16 h. The procedure, abridged:
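Fluorescence from a beta-lactamase reporter under a p53 response element was measured after cells had been incubated 16 h at 37 C with test compound and rat liver microsomes plus NADPH (0.5 mg/mL final each).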

Experiment [4] in a line: p53 small molecule agonists, cell-based qHTS assay: qHTS cell viability counter screen (AID 1963581). Note: nearly all actives have a fitted effect of over 45% in size. To be noted: p53RE-bla HCT-116 viability, ATP luminescence, 16 h; at 66 µM (top of the series) unless noted. The method, boiled down: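 Counter screen read by CellTiter-Glo luminescence (ATP content, 30 min at room temperature), run in the same wells as the beta-lactamase reporter read. HCT-116 p53RE-bla cells saw compounds for 16 h at 37 C.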

The nature of experiment [5]: p53 small molecule agonists, cell-based qHTS assay (AID 1963582; active = well fitted activation curve with a large enough effect in the signal ratio in the repeat runs, not every such curve was filed as active; the % refers to the signal ratio). The procedure, abridged: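 Read-out is beta-lactamase FRET fluorescence after 2 h at room temperature with LiveBLAzer B/G substrate. p53 response element-bla cells were treated 16 h at 37 C with compounds in DMSO, added 5 h after seeding.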
A short description of experiment [6]: cAMP Responsive Elements (CRE) small molecule antagonists, cell-based qHTS assay (AID 1963591; active = well fitted inhibition curve with a large enough effect in the signal ratio in the repeat runs, not every such curve was filed as active; the % refers to the signal ratio). Conditions: CRE-bla HEK293T, beta-lactamase FRET ratio. The procedure, abridged:
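Antagonist mode: compounds are added alongside the adenylyl cyclase activator NKH477 (0.25 uM final) to CRE-bla HEK293T cells for 3 h. LiveBLAzer FRET substrate, 2 h at room temperature, reports bla expression.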

The target of experiment [7] is D(2) dopamine receptor (Homo sapiens) (UniProt P14416). Kind of experiment: Dopamine D2 receptor (DRD2) small molecule antagonists, cell-based qHTS assay (AID 1963595; active = well fitted inhibition curve with a large enough effect in the signal ratio in the repeat runs, with a control signal flat; the % refers to the signal ratio). To be noted: HEK293-DRD2 cAMP HTRF antagonist mode; at 92.4 µM (top of the series) unless noted. The method, boiled down:
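In this cell-based antagonist screen, compounds act for 10 min at room temperature before a 30 min challenge with 12 nM quinpirole and 200 nM NKH477. cAMP is quantified by HTRF competition in DRD2-HEK293 cells containing 0.1 mM Ro20-1724.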
% is set by controls: 0 for no effect and ±100 for the full control effect.

Consider `N#CBr`, for which the activity change, negative = cytotoxicity in experiment [1] is inactive: -3.33%; in experiment [4] it was inactive: -1.4%. Further, the Potency entry in experiment [2] and in experiment [5] was “inactive” each time. In addition, in experiment [3] (at 66 µM (top of the series)), the activation was inactive: -3.78%. For the same compound, the activity change, negative = inhibition in experiment [6] (at 92.4 µM (top of the series)) is inactive: -4.86%; in experiment [7], inactive: 0.733%.
With `CC(C)N(CCO)C(C)C`, the activity change, negative = cytotoxicity in experiment [1] is inactive: 2.35%; in experiment [4], inactive: 5.8%. Besides, the Potency entry in experiment [2] and in experiment [5] was “inactive” throughout. Further, the activation in experiment [3] (at 66 µM (top of the series)) was inactive: -0.02%. Further, the activity change, negative = inhibition was inactive: 2.56% in experiment [6] (at 92.4 µM (top of the series)) and inactive: -2.26% in experiment [7].
On to `Nc1cc([N+](=O)[O-])cc([N+](=O)[O-])c1O`, for which the Potency entry in experiment [2] is “inactive”. Moreover, in experiment [3] (at 66 µM (top of the series)), the activation is inactive: -1.27%. Moreover, the activity change, negative = cytotoxicity in experiment [4] is inactive: -15.6%. Further, the activity change, negative = inhibition in experiment [6] (at 92.4 µM (top of the series)) is inactive: 14.4%.
In the case of `Cc1c([N+](=O)[O-])cccc1[N+](=O)[O-]`, the activity change, negative = cytotoxicity in experiment [1] is inactive: 1.95% and inactive: 7.53%; in experiment [4] it was inactive: -12.8% and inactive: -2.54%. Besides, the Potency result in experiment [2] and in experiment [5] was “inactive” each time. Besides, the activation in experiment [3] (at 66 µM (top of the series)) is inactive: 0.244% and inactive: -3.92%. For the same compound, the activity change, negative = inhibition in experiment [6] (at 92.4 µM (top of the series)) is inactive: 8.79% and inactive: -1.59%; in experiment [7] it was inactive: 5.7% and inactive: 4.24%.
For `CCOP(=O)(CC)Oc1ccc([N+](=O)[O-])cc1` (stereo unspecified), the activity change, negative = cytotoxicity in experiment [1] was inactive: 7.54% [at 42.5 µM]; in experiment [4], inactive: -11.4% [at 30.3 µM]. Also, the Potency result in experiment [2] and in experiment [5] was “inactive” throughout. The values for the activity change, negative = inhibition in experiment [6] (at 42.4 µM (top of the series)) and in experiment [7] were inactive: -10.5% and inactive: 8.36% [at 42.5 µM], respectively.
For the compound `Cc1cccc([N+](=O)[O-])c1[N+](=O)[O-]`, the activity change, negative = cytotoxicity in experiment [1] is inactive: 11.7% [at 42.5 µM]. Also, the Potency entry in experiment [2] and in experiment [5] was “inactive” throughout. In addition, in experiment [3] (at 30.3 µM (top of the series)), the activation is inactive: 3.77%. In addition, the activity change, negative = inhibition in experiment [7] is inactive: 3.05% [at 42.5 µM].
As to `O=[N+]([O-])[O-].[NH4+]`, the activity change, negative = cytotoxicity in experiment [1] was inactive: 0.803% and inactive: -4.96%; in experiment [4], inactive: 2.41% and inactive: -0.62%. For the same compound, in experiment [2], the Potency result was “inactive”. Further, the activity change, negative = inhibition in experiment [6] (at 92.4 µM (top of the series)) was inactive: 1.54% and inactive: -4.37%; in experiment [7], inactive: 7.16% and inactive: -0.381%.
Turning to `Cc1ccc([N+](=O)[O-])c([N+](=O)[O-])c1`, the activity change, negative = cytotoxicity in experiment [1] was inactive: 1.72%; in experiment [4], inactive: 1.76% and inactive: 14.8%. For the same compound, the Potency result in experiment [2] is “inactive and active: 43.7 µM”. The activation in experiment [3] (at 66 µM (top of the series)) is inactive: -11.8% and inactive: -1.34%. Also, the activity change, negative = inhibition in experiment [7] was inactive: 0.251% and inactive: -11.7%.
As to `CP(=O)(O)OCCC[Si](O)(O)O`, the activity change, negative = cytotoxicity in experiment [1] was inactive: -0.548%; in experiment [4], inactive: -8.84%. For the same compound, the Potency result in experiment [2] is “inactive”. The activation in experiment [3] (at 66 µM (top of the series)) is inactive: 1.17%. In addition, the activity change, negative = inhibition in experiment [6] (at 92.4 µM (top of the series)) was inactive: 2.16%; in experiment [7], inactive: -2.75%.
For the compound `CC(C)OP(C)(=O)OC(C)C`, the Potency result in experiment [2] and in experiment [5] was “inactive” throughout. In addition, the activation in experiment [3] (at 66 µM (top of the series)) was inactive: 0.375% and inactive: -0.0373%. In experiment [4], the activity change, negative = cytotoxicity is inactive: -8.46% and inactive: -22.1%. Moreover, the activity change, negative = inhibition in experiment [6] (at 92.4 µM (top of the series)) is inactive: -14.9% and inactive: -10.3%; in experiment [7], inactive: 7.23% and inactive: -15%.
As to `C/C1=C2N=C(/C=C3N=C(/C(C)=C4\[N-][C@@](C)([C@@H]5N=C1[C@](C)(CCC(=O)NC[C@@H](C)OP(=O)([O-])O[C@H]1[C@@H](O)[C@@H](n6cnc7cc(C)c(C)cc76)O[C@@H]1CO)[C@H]5CC(N)=O)[C@@](C)(CC(N)=O)[C@@H]4CCC(N)=O)[C@@](C)(CC(N)=O)[C@@H]\3CCC(N)=O)C(C)(C)[C@@H]/2CCC(N)=O.[C-]#N.[Co+3]`, the activity change, negative = cytotoxicity in experiment [1] was inactive: -19.3% [at 42.5 µM]; in experiment [4], inactive: -2.48% [at 30.3 µM]. The Potency entry in experiment [2] and in experiment [5] was “inactive” each time. In experiment [3] (at 30.3 µM (top of the series)), the activation was inactive: 4.42%. In addition, the activity change, negative = inhibition was inactive: -1.89% in experiment [6] (at 42.4 µM (top of the series)) and inactive: 3.2% [at 42.5 µM] in experiment [7].
With `O=[N+]([O-])c1cccc([N+](=O)[O-])c1`, the activity change, negative = cytotoxicity in experiment [1] was inactive: 0%. In addition, the Potency result in experiment [2] and in experiment [5] was “inactive” each time. The activation in experiment [3] (at 66 µM (top of the series)) was inactive: 8.09%. Moreover, the activity change, negative = inhibition in experiment [6] (at 92.4 µM (top of the series)) is inactive: 2.29%; in experiment [7] it was inactive: 0.0356%.
